Biological target: human Nav1.7 (Homo sapiens, UniProt Q15858)
Assay: Whole-cell patch-clamp, HEK293 cells stably expressing human Nav1.7 with GFP or FGF13-GFP
Format: cell-based
Conditions: Fig 1F; FGF13-GFP; Log (conc(M) -4); FGF13R110A

By UniProt entry, the sequences of proteins in these tests, tags left out. Residues count along the entry.
UniProt Q15858, 1-1977 isoform 3: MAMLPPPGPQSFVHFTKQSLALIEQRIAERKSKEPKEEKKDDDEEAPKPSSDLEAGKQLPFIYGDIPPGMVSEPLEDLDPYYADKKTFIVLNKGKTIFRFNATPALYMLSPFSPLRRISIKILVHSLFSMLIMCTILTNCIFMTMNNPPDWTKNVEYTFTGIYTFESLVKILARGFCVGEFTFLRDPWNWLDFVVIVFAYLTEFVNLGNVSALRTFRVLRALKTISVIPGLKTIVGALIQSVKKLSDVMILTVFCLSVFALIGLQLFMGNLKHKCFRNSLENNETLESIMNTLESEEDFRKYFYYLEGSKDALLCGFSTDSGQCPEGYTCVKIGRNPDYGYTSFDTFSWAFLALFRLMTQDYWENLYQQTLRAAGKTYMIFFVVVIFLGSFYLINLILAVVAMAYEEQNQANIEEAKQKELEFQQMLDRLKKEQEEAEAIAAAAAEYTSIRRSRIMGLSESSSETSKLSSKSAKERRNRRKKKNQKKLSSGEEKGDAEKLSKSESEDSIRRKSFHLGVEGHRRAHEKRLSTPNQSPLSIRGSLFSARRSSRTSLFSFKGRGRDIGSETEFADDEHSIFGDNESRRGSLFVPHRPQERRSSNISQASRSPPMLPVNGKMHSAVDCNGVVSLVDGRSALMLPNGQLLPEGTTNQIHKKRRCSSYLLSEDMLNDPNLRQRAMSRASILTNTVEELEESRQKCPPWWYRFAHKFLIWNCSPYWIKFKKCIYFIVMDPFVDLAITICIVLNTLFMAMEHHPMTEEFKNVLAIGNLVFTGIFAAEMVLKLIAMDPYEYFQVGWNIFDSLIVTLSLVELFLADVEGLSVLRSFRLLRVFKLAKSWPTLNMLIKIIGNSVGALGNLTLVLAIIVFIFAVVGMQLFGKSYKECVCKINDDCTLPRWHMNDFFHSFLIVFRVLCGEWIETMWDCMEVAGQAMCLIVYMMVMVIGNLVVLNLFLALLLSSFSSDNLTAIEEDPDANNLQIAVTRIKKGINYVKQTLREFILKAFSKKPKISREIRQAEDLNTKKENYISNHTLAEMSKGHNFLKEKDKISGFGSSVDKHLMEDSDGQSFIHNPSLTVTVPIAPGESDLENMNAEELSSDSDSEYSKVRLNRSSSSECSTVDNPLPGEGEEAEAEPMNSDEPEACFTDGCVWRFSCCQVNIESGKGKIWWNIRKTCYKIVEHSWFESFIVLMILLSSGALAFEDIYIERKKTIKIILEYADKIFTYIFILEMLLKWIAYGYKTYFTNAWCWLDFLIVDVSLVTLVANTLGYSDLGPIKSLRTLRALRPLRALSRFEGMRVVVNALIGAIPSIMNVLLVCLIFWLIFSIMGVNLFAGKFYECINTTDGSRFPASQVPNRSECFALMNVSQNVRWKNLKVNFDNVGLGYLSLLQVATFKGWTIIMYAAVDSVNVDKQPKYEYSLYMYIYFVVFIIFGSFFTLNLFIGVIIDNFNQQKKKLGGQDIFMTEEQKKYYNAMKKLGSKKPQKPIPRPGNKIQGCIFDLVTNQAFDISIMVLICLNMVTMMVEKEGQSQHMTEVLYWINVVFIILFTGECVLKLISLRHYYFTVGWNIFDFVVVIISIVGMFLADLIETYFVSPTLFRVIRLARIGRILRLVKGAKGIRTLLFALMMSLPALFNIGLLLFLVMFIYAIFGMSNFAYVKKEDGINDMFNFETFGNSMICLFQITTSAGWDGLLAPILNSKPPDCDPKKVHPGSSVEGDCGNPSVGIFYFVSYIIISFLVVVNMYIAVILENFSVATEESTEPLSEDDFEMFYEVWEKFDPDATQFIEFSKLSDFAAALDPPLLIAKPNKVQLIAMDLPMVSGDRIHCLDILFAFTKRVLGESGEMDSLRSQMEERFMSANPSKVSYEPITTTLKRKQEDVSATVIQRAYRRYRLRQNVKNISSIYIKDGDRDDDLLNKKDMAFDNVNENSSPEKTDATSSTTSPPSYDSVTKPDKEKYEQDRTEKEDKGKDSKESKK
UniProt Q92913, 1-192 partner limits assumed: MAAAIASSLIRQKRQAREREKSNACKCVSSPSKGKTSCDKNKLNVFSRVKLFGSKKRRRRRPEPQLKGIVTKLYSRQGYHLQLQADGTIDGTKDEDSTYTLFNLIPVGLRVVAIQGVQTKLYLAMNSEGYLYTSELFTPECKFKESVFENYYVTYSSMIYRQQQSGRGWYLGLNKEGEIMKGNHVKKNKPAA

`COC(=O)[C@@H](NC(=O)[C@H](CCC(=O)OC(C)(C)C)NC(=O)[C@H](CC(C)C)NC(=O)[C@@H]1CCCN1C(=O)OCc1ccccc1)C(C)C` was tested, and the “peak INa density, dose response, single cells” value was -16.0106 pA/pF.

From article PMC12259270, “Sensory neuron–expressed FGF13 controls nociceptive signaling in diabetic neuropathy models” (The Journal of Clinical Investigation, 2025)
